In patent US11866459B2, “Cocrystal of progesterone and preparation method and use thereof” (NATIONAL INSTITUTES FOR FOOD AND DRUG CONTROL, priority 2020, dated 2024):

Assays:
[1] = Determination of the dissolution rate (dissolution curves, stirring paddle method, HPLC); conditions: for time at which the highest concentration was reached / highest value of concentration of progesterone on dissolution curve: 37±0.5° C.; for highest value of concentration of progesterone on dissolution curve: 50 to 100 rpm
Protocol: (§1) The present invention involves the following detection instruments: • Single-crystal X-ray diffractometer: Bruker P4, Mo target, \ω scan, 296.15K; • Fourier infrared spectrometer: PerkinElmer Frontier FT/IR Spectrometer, normal temperature, KBr pellets, wavelength of 4000 to 450 cm^−1; • Powder X-ray diffractometer: Rigaku D/max-25509 kw, CuKα radiation, graphite monochromator; • Differential scanning calorimetry analyzer: Mettler Toledo DSC 822e, heating rate of 10° C./min, nitrogen flow rate of 50 mL/min; • Dynamic vapour sorption analyzer: SMS DVS advantage, 25° C.; • Dissolution apparatus: Tianjin Tianda Tianfa Technology Co., Ltd. RC806D, stirring paddle method; • Drug permeation rate tester: Pion Inc μFlux™.
The two dissolution media are water and pH 1.2 hydrochloric acid solution, respectively. […] The content of progesterone at the wavelength of 241 nm was measured by the HPLC method, and the dissolution amount was calculated by the external standard method. Dissolution curves with time as the abscissa and the concentration of progesterone as the ordinate were respectively plotted, as shown in FIGS. 5 and 6.

[2] = Parallel artificial membrane permeability assay (PAMPA), permeation rate and effective permeability
Protocol: as §1
Since the pH of fasting intestinal fluid in a human body is 6.5 and the pH of blood is 7.4, in order to make the conditions under which the permeation rate was measured close to the environment of the human gastrointestinal tract, pH 6.8 phosphate buffer was selected as the medium in the experiment. 3 mg of progesterone monomers and cocrystals of progesterone equivalent to 3 mg of progesterone were accurately weighed, and respectively placed in a donor compartment that represents the gastrointestinal tract, and 20 ml of pH 6.8 phosphate buffer was accurately added. 20 ml of pH 7.4 ASB buffer was accurately added to a receptor compartment that represents blood. The two compartments were separated by a biomimetic membrane with an area of 1.54 cm^2. The biomimetic membrane was coated with 25 μl of simulated gastrointestinal liposomes for infiltration, which represents the cell membrane of the gastrointestinal tract. At the temperature of 37° C. and the stirring speed of 200 rpm, sampling was conducted for 4 h, with an interval of 60 s between each two sampling procedures. The drug concentration in the receptor compartment was measured with a fiber optic probe within the ultraviolet wavelength range of 250 to 350 nm. The artificial membrane permeation rate of the drug was calculated according to Formula 1 (J/Flux).
[formula] represents the rate of change of drug concentration in the receptor compartment per unit time (μg·mL^−1·min^−1); V is the volume of buffer in the receptor compartment (mL); A is the area of the biomimetic membrane (cm^2); and Ct is the initial concentration of the drug in the donor compartment (μg·mL^−1).
The level of drug permeability can be determined by comparing the permeability of the drug with that of metoprolol measured by the same method.

[3] = pH 1.2 hydrochloric acid solution

Q: What does the source list for progesterone-isophthalic acid cocrystal?
A: solubility relative to the progesterone monomer [1, 3]: 1.0 times; time at which the highest concentration was reached [1, 3]: 40 min; highest value of concentration of progesterone on dissolution curve [1, 3]: 7.65 µg/mL; solubility relative to the progesterone monomer ([1]; water): 1.7 times; time at which the highest concentration was reached ([1]; water): 90 min; highest value of concentration of progesterone on dissolution curve ([1]; water): 13.68 µg/mL; effective permeability (Pe) [2]: 938 ×10⁻⁶ cm/s; permeation rate (J, Flux) [2]: 0.36 μg·min^−1·cm^−2; permeability level compared with metoprolol ([2]; pH 6.8): high permeability; permeation rate relative to the progesterone monomer ([2]; pH 6.8 phosphate buffer): 1.1 times
